Values quoted from earlier work as cited in article PMC8729037 (European journal of pharmacology, 2019).

System: EGFR
Conditions: NSCLC cell lines; ref Moody et al., 2014; cited from earlier work

COc1cc2ncnc(Nc3ccc(F)c(Cl)c3)c2cc1OCCCN1CCOCC1 [Gefitinib]
Effect on neurotensin-induced EGFR tyrosine phosphorylation (in words): reduced
